Earlier results as cited in article PMC3767463 (Journal of the American Chemical Society, 2013).

Conditions: cited from earlier work

kalata B1
Concentration at which cytotoxic: above 10 μM
